Measured values reported in publication PMC9369162, “Substrates of the Human Brain Proton-Organic Cation Antiporter and Comparison with Organic Cation Transporter 1 Activities” (International Journal of Molecular Sciences, 2022).

Biological target: T1, OCT1 (Homo sapiens, UniProt O15245)
T1 construct: expressed in transfected cells; host or cells: HEK293
T1 sequence (O15245 1-554): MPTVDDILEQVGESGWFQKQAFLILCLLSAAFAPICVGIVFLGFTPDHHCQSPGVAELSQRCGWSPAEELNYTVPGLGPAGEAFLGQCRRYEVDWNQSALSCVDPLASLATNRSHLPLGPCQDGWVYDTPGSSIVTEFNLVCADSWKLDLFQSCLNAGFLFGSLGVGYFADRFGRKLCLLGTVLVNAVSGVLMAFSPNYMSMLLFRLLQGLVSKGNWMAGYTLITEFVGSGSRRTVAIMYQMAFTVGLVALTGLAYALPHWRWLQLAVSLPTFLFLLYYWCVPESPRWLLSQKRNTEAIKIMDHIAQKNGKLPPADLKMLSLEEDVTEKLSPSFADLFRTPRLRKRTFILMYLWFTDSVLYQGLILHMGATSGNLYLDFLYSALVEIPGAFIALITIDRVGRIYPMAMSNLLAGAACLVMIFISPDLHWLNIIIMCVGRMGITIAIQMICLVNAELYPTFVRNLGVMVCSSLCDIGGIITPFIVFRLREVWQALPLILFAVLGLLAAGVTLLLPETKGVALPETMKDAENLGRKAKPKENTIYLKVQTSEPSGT
Assay: Cell uptake in OCT1 overexpressing HEK293 cells over empty-vector transfected cells
Format: cell-based

CC(Cc1ccc(O)cc1)NCC(O)c1cc(O)cc(O)c1 (stereo not shown) [Fenoterol]
OCT1 Ratio: 13.90
